Laboratory results reported in patent US10745393B2, “Small molecular probes, processes and use thereof” (JAWAHARLAL NEHRU CENTRE FOR ADVANCED SCIENTIFIC RESEARCH, priority 2014, dated 2020).

By UniProt entry, the sequences of proteins in these tests, tags left out. Residues count along the entry.
UniProt P02769, 25-607: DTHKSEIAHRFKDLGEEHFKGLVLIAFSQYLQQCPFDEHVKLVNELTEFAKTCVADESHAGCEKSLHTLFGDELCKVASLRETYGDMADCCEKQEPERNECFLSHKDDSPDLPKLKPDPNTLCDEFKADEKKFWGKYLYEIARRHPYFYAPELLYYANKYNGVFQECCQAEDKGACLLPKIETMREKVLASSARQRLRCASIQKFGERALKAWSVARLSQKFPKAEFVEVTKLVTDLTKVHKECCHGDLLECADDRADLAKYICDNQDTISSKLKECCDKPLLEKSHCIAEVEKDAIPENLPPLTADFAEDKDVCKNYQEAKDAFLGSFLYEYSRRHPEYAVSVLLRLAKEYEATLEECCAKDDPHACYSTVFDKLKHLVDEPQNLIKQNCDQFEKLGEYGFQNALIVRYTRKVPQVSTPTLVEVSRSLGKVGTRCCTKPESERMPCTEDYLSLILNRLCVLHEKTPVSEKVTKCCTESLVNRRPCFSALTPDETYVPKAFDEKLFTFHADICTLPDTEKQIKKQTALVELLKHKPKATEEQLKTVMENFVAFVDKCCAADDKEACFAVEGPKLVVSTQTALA
UniProt P05067, 672-713 limits assumed: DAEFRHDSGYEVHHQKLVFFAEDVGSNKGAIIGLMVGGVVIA

Assays:
(AT)10 = test: Absorption / fluorescence response of probes with dsDNA (AT)10; type: binding; details: probe 10 μM
[1] = target: bovine serum albumin (BSA) (Bos taurus, UniProt P02769); test: Selectivity: fluorescence with BSA; type: binding; details: BSA 20 μM
DNA = test: Comparison of DNA dyes: sequence selectivity and fluorescence of free/DNA bound dye; type: binding; details: Table 3, probe of the disclosure
[2] = target: fetal bovine serum albumin (FBA) (Bos taurus, UniProt P02769); details: TC 10 μM, Tris-HCl buffer, excitation 521 nm
Aβ42 aggregates = Aβ42 aggregates (Homo sapiens, UniProt P05067); test: Absorption / fluorescence response with Aβ42 fibrillar aggregates; type: binding

CCN(CC)c1ccc2cc(/C=C/c3sc4ccccc4[n+]3C)c(=O)oc2c1 [TC, (E)-3-(2-(N-methyl-benzo[d]thiazol-2-yl)vinyl)-7-(diethylamino)-2H-chromen-2-one]
change in absorption maxima (bathochromic shift, Δλ) after addition of dsDNA (AT)10 ((AT)10): 14 nm
hypsochromic shift (Δλ) in the emission maxima with (AT)10 ((AT)10): 26 nm
fluorescence enhancement with BSA [1]: does not lead to significant fluorescence enhancements
Selectivity (DNA): AT-rich
fluorescence in presence of FBA [2]: does not show any detectable basal fluorescence
Shift (red shift going into fibril-like environment) (Aβ42 aggregates; Experiment, fibril vs water): 58 nm
bathochromic shift of absorption maxima (Δλmax) with Aβ42 aggregates (Aβ42 aggregates; TC 2 μM, Aβ42 aggregates 10 μM): ≈ 59 nm
